Reference: ChEMBL document CHEMBL1131063 (J Med Chem, 1998)

System: Phospholipase A2 (Naja naja)
Assay: Inhibitory activity against naja naja secretory Phospholipase A2 at 10 uM
Settings: snake

With CC(C)=CCC/C(C)=C/CC/C(C)=C/CC1=CCC(C2=CC(=O)OC2O)OC1 (stereo unspecified) the inhibition was 17.7%.
